Measurements reported in patent US7883888B2, “Peptides selectively lethal to malignant and transformed mammalian cells” (The Research Foundation —The State University of New York, priority 2000, dated 2011).

How the values were obtained:
TUC-3 cells = assay: TUC-3 transformed pancreatic cancer cells in culture treated with synthetic peptide; assay type: cell-based, rat
Procedure: When applied to cells grown in culture, synthetic peptides are selectively lethal to malignant or transformed cells, resulting in dose dependent reduction in cell number. The effect is observable generally within two to three and at most 48 hours. A line of rat pancreatic acinar cells (BMRPA.430) grown in culture was transformed with K-ras. […] When BMRPA.430 cells were treated with a synthetic peptide with the primary structure of SEQ ID NO:1 coupled to leader sequence SEQ ID NO:4, at a dosage of 50 μg/ml, the cells were not affected. […] In contrast, the same synthetic peptide at the same dosage had no effect on non-malignant and non-transformed human breast or fibroblast cell lines.
The peptide having the sequence set forth in SEQ ID NO:3 was synthesized by solid phase synthesis with the leader sequence attached to the amino terminal end. This peptide is labeled PNC28′ in Table 2 below. The PNC28′ peptide was incubated with transformed pancreatic cancer (TUC-3) cells at three different concentrations, i.e., 25, 50 and 100 μg/ml. […] In contrast, when the leader sequence was attached to the carboxyl terminal end of the peptide (PNC28 in Table 2), at dosages of 50 and 100 μg/ml. 100% cell death occurred in about 4 days.

human stem cells = assay: differentiation of human stem cells into hematopoietic cell lines in the presence of growth factors; assay type: cell-based
From the text: Additionally, the peptide having the amino acid sequence as set forth in SEQ ID NO:3 fused at the carboxy terminal end to the leader peptide set forth in SEQ ID NO:4, has no effect on the ability of human stem cells to differentiate into hematopoietic cell lines in the presence of growth factors. […] See Kanovsky et al., (Oct. 23, 2001) Proc. Nat. Acad. Sci. USA 98(22);12438-12443, the disclosure of which is incorporated by reference herein as if fully set forth.

| Compound | reversion of TUC-3 cells (TUC-3 cells; 25 μg/ml, two weeks of incubation) | cell death and reversion of TUC-3 cells (TUC-3 cells; 50 μg/ml, two weeks of incubation) | cell death of TUC-3 cells (TUC-3 cells; 100 μg/ml (highest dose), two weeks of incubation) | cells forming acini and exhibiting the untransformed morphological phenotype (TUC-3 cells; 100 μg/ml, two weeks of incubation) | EFFECT (TUC-3 cells; Table 3, leader is SEQ ID NO:4) | effect on ability of human stem cells to differentiate into hematopoietic cell lines (human stem cells) |
| --- | --- | --- | --- | --- | --- | --- |
| PNC 28′: Leader (SEQ ID NO:4) attached to the amino terminal end of ETFSDLWKLL (SEQ ID NO: 3) (KKWKMRRNQFWVKVQRGETFSDLWKLL; penetration leader sequence from antennapedia; amino acid residue 17-26 of human p53 protein) | significantly fewer cells were seen to revert | The same phenomena were observed | no cell death | approximately half of the cells | No cell death | – |
| CSCC[C@H](NC(=O)[C@H](CCCCN)NC(=O)[C@H](Cc1c[nH]c2ccccc12)NC(=O)[C@H](CCCCN)NC(=O)[C@H](CCCCN)NC(=O)[C@H](CC(C)C)NC(=O)[C@H](CC(C)C)NC(=O)[C@H](CCCCN)NC(=O)[C@H](Cc1c[nH]c2ccccc12)NC(=O)[C@H](CC(C)C)NC(=O)[C@H](CC(=O)O)NC(=O)[C@H](CO)NC(=O)[C@H](Cc1ccccc1)NC(=O)[C@@H](NC(=O)[C@@H](N)CCC(=O)O)[C@@H](C)O)C(=O)N[C@@H](CCCNC(=N)N)C(=O)N[C@@H](CCCNC(=N)N)C(=O)N[C@@H](CC(N)=O)C(=O)N[C@@H](CCC(N)=O)C(=O)N[C@@H](Cc1ccccc1)C(=O)N[C@@H](Cc1c[nH]c2ccccc12)C(=O)N[C@H](C(=O)N[C@@H](CCCCN)C(=O)N[C@H](C(=O)N[C@@H](CCC(N)=O)C(=O)N[C@@H](CCCNC(=N)N)C(=O)NCC(=O)O)C(C)C)C(C)C [PNC 28] | – | – | – | – | – | no effect |
